Values of other authors, collected in patent US20080070794A1, “Chemical sensors” (The Trustees of Princeton University, priority 2005, published 2008).

Tests used:
Settings in all cases: cited from earlier work
[1] = biological target: Muscarinic
[2] = biological target: alpha A1
[3] = biological target: Melatonin
[4] = test system: Histamine

O=C1CC2(CCCC2)CC(=O)N1CCCCN1CCN(c2ncccn2)CC1 [buspirone]
Kd [1]: 100 µM | Kd [2]: 100 µM

Clc1cccc(Cl)c1N=C1NCCN1 [clonidine]
Kd [3]: 100 µM

CNC[C@H](O)c1ccc(O)c(O)c1 [epinephrine]
x (efficacy factor) Histamine [4]: 1.0
